Assays:
[1] = vapor-liquid equilibrium still, isopropanol-water azeotrope with agent; details: isopropanol from water, agent in vapor-liquid equilibrium still, water as overhead
[2] = vapor-liquid equilibrium still, n-propanol-water azeotrope with agent; details: n-propanol from water
[3] = glass perforated plate rectification column, n-propanol from water; assay type: physicochemical; details: extractive mode, 2 hrs, * n-propanol comes off as overhead
[4] = glass perforated plate rectification column (7.3 theoretical plates), isopropanol from water; assay type: physicochemical; details: azeotropic mode, 8 hrs

Molecule | Relative Volatility [1] | also measured
CCCCCC(=O)OCC [Ethyl caproate] | 1.56 | 
Butoxypropanol |  | Relative Volatility ([2]; extractive distn., water as overhead): 2.2
c1ccc(COCc2ccccc2)cc1 [Benzyl ether] | 1.41 | 
CCCCO [1-Butanol] | 1.43 | 
C=COCC(C)C [Vinyl isobutyl ether] | 1.57 | Relative Volatility ([2]; azeotropic distn.): 2.7
CCCCCCCCCC(C)=O [2-Undecanone] | 1.26 | 
CC(=O)OCC(C)C [Isobutyl acetate] | 1.24 | Relative Volatility [3]: 1.21; Relative Volatility ([2]; extractive distn., * brings n-propanol out as overhead): 1.3
C=COCCCC | 1.83 | Relative Volatility ([2]; azeotropic distn.): 3.0; Relative Volatility [4]: 1.33
